# Molecular target: VLA-4 (α4β1 integrin) binding to immobilized VCAM-1 (Homo sapiens, UniProt P05556+P13612)
# The chains behind the UniProt entries cited, without tags or fusion partners. Residues count along the entry.
# UniProt P05556, 21-798 limits assumed: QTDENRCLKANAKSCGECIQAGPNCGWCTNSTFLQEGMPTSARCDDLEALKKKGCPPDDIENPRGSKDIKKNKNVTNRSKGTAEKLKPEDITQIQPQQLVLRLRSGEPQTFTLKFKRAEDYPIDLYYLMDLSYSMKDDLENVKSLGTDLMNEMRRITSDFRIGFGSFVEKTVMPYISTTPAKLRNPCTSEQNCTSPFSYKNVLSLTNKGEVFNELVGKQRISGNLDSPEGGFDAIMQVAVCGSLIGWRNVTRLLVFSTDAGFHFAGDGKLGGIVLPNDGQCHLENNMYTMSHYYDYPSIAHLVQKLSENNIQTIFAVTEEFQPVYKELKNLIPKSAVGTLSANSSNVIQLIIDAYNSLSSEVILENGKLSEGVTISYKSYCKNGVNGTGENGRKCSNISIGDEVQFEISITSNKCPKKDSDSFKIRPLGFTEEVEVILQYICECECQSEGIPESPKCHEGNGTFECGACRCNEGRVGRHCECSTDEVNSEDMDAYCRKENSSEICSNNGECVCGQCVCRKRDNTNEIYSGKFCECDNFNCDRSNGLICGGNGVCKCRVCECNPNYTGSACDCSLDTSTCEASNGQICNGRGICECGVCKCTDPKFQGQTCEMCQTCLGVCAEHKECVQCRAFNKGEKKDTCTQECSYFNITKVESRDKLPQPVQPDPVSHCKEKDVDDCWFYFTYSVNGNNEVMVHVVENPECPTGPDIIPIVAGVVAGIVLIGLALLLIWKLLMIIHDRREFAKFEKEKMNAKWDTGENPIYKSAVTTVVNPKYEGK
# UniProt P13612, 34-1032 limits assumed: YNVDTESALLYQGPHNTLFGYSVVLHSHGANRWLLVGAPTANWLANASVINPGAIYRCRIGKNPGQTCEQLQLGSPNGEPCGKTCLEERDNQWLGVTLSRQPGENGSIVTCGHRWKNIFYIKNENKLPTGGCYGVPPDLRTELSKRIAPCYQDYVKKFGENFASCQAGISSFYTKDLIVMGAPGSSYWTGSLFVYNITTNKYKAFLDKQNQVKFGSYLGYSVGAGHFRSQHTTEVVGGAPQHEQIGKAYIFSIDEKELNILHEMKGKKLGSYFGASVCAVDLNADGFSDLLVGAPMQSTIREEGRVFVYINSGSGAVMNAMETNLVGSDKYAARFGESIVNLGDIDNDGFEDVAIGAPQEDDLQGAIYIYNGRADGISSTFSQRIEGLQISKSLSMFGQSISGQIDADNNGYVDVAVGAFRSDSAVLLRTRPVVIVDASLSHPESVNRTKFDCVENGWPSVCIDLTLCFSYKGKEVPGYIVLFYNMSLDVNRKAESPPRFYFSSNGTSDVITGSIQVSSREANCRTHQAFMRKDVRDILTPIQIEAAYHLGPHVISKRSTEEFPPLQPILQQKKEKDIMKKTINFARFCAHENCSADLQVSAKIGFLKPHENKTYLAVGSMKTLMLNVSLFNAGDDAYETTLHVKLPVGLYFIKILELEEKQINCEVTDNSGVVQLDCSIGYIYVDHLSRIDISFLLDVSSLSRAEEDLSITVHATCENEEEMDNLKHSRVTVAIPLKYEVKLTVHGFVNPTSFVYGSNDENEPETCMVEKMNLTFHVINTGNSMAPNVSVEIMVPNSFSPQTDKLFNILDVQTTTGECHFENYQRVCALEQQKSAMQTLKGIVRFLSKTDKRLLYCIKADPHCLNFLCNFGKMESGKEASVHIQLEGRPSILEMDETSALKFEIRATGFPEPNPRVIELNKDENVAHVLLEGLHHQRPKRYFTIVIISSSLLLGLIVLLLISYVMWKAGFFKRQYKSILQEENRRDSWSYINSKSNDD
# Experiment: VLA-4/VCAM-1 Screening Assay (solid-phase, dual antibody ELISA)
# Settings: % inhibition of total binding
compound,measurement,setting,value
CC1(C)C2CCC1(C)C(C(=O)O)C2C(=O)N[C@@H](Cc1ccc(NC(=O)c2ccnc3ccccc23)cc1)C(=O)O (some centres unmarked),% Inh. @ conc.,conc. 10 nM,50%
same,% Inh. @ conc.,conc. 100 nM,86%
